# Laboratory results published in article PMC5447729 (Frontiers in Pharmacology, 2017).
# Chains of the proteins cited; added tags and fusions are not shown. Lines headed by an entry give the natural chain unless they say otherwise; changes in a name come on top.
# UniProt P37231: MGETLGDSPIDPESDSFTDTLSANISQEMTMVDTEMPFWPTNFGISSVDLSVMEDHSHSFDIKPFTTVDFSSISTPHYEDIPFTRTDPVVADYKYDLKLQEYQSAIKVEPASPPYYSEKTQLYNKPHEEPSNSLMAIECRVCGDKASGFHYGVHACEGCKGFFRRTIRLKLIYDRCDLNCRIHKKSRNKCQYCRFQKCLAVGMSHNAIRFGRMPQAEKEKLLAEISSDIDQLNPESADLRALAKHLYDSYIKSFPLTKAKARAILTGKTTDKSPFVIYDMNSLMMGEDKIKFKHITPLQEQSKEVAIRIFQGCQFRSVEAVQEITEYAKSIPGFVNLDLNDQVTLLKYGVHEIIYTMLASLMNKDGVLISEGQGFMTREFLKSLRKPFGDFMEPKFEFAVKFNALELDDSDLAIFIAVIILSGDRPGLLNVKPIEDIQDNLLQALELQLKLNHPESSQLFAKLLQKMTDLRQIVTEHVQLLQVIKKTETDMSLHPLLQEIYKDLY
# How the values were obtained:
# [1] = test system: DIO mice; assay: Three-week oral treatment of insulin-resistant DIO mice (OGTT, FBG, serum factors, organ indices, liver lipids, histology); format: in vivo; settings: RSG 10 mg kg−1, INT131 30 mg kg−1, especially for INT131
# Protocol: All animal experiments were performed according to procedures approved by the Animal Experimentation Ethics Committee of the Beijing Institute of Pharmacology and Toxicology for animal care, handling and termination. Eight-week-old male homozygous C57BLKS/J db/db mice were obtained from the Model Animal Research Centre of Nanjing University (Nanjing, China) and fed a standard mouse diet. Male C57BL/6 mice (4 weeks old) were obtained from the Laboratory Animal Centre of the Beijing Institute of Pharmacology and Toxicology and fed a high-fat, high-sugar diet for 16 weeks to induce diet-induced obesity (DIO). […] Compounds were dissolved in DMSO and suspended in 0.5% carboxymethylcellulose. Body weight (BW) and fasting blood glucose were recorded regularly during the treatment period. […] Blood glucose was monitored at 0, 30, 60, 90, and 120 min after the oral administration of 1 g kg^−1 dextrose. […]
# Serum triglyceride (TG), cholesterol, free fatty acid (FFA), and glucose levels were measured by using commercial kits (Nanjing Jiancheng Bioengineering Institute, Nanjing, China) according to the manufacturer's instructions. Serum adiponectin, monocyte chemotactic protein 1(MCP1), Interleukin-6 (IL-6), Receptor activator of nuclear factor kappa-B ligand (RANKL), and Adrenocorticotropic Hormone (ACTH) were quantified using a multiplex Luminex assay (Millipore/Linco Research). […]
# [2] = biological target: T1, hPPARγ2 / hMED1 (Homo sapiens, UniProt P37231); assay: Mammalian two-hybrid assay of MED1 recruitment (pACT-hPPARγ2, pBIND-hMED1, pG5-luc); format: cell-based; settings: 0.01 μM, HEK293 and CHO cells
# T1 construct: expressed in transfected cells; host or cells: HEK293T (HEK293) and CHO cells
# [3] = test system: db/db mice; assay: Three-week oral treatment of diabetic db/db mice (FBG, ITT, serum parameters, organ indices); format: in vivo; settings: end of 3-week treatment
# Protocol: All animal experiments were performed according to procedures approved by the Animal Experimentation Ethics Committee of the Beijing Institute of Pharmacology and Toxicology for animal care, handling and termination. Eight-week-old male homozygous C57BLKS/J db/db mice were obtained from the Model Animal Research Centre of Nanjing University (Nanjing, China) and fed a standard mouse diet. Male C57BL/6 mice (4 weeks old) were obtained from the Laboratory Animal Centre of the Beijing Institute of Pharmacology and Toxicology and fed a high-fat, high-sugar diet for 16 weeks to induce diet-induced obesity (DIO). […] Body weight (BW) and fasting blood glucose were recorded regularly during the treatment period. […] Blood glucose was monitored at 0, 30, 60, 90, and 120 min after the oral administration of 1 g kg^−1 dextrose. […]
# Serum triglyceride (TG), cholesterol, free fatty acid (FFA), and glucose levels were measured by using commercial kits (Nanjing Jiancheng Bioengineering Institute, Nanjing, China) according to the manufacturer's instructions. Serum adiponectin, monocyte chemotactic protein 1(MCP1), Interleukin-6 (IL-6), Receptor activator of nuclear factor kappa-B ligand (RANKL), and Adrenocorticotropic Hormone (ACTH) were quantified using a multiplex Luminex assay (Millipore/Linco Research).
smiles,measurement,setting,value
"CN(CCOc1ccc(CC2SC(=O)NC2=O)cc1)c1ccccn1 (stereo not shown) [RSG, 5-[[4-[2-[methyl(pyridin-2-yl)amino]ethoxy]phenyl]methyl]-1,3-thiazolidine-2,4-dione]",BAT index,[1],increase
same,MED1 recruitment,[2],recruited substantial amounts of MED1
same,BAT mass index,[3],increased
same,liver (hepatic) weight index,[3],increased
